Read-outs that look alike come from different tables or passages of the source.
Conditions: Sheep 412, nasal drops without adjuvant

Epinephrine (0 min): 33 pg/mL
Epinephrine (10 min): 134 pg/mL
Epinephrine (15 min): 65 pg/mL
Epinephrine (30 min): 78 pg/mL
Epinephrine (+5 min): 86 pg/mL
Structure (SMILES): CNC[C@H](O)c1ccc(O)c(O)c1 [epinephrine]

Source: patent US4746508A, “Drug administration” (Beth Israel Hospital Assn., priority 1984, dated 1988)
